Measured values: the supplement of paper PMC10307832

Experiments:
Test in all cases: relative viability (nuclei count vs DMSO), 5 days (fraction); higher = more cells survive
XMD8-85 + Dasatinib = compound: CN1CCN(CC1)C2=CC(=C(C=C2)NC3=NC=C4C(=N3)N(C5=CC=CC=C5C(=O)N4C)C)OC [XMD8-85] + Cc1nc(Nc2ncc(C(=O)Nc3c(C)cccc3Cl)s2)cc(N2CCN(CCO)CC2)n1 [Dasatinib] (partner 0.075 µM)
Procedure, shortened: (§1)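 Values are medians from duplicate plates. Each reflects relative viability, defined as the nuclei count of treated wells over that of vehicle wells. Lung cancer cell lines in 1536-well plates were pin-tool dosed one day after seeding with one drug alone or with a fixed anchor-drug dose plus five library-drug doses (not always all listed) in √10 steps, then fixed, stained and imaged at 4× after 5 days.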

XMD8-85 + Tozasertib = compound: CN1CCN(CC1)C2=CC(=C(C=C2)NC3=NC=C4C(=N3)N(C5=CC=CC=C5C(=O)N4C)C)OC [XMD8-85] + Cc1cc(Nc2cc(N3CCN(C)CC3)nc(Sc3ccc(NC(=O)C4CC4)cc3)n2)n[nH]1 [Tozasertib] (partner 0.1 µM)
Procedure, shortened: as §1

XMD8-85 + Pictilisib = compound: CN1CCN(CC1)C2=CC(=C(C=C2)NC3=NC=C4C(=N3)N(C5=CC=CC=C5C(=O)N4C)C)OC [XMD8-85] + CS(=O)(=O)N1CCN(Cc2cc3nc(-c4cccc5[nH]ncc45)nc(N4CCOCC4)c3s2)CC1 [Pictilisib] (partner 1 µM); conditions: first compound 0.8 µM
Procedure, shortened: as §1

XMD8-85 + Lapatinib = compound: CN1CCN(CC1)C2=CC(=C(C=C2)NC3=NC=C4C(=N3)N(C5=CC=CC=C5C(=O)N4C)C)OC [XMD8-85] + CS(=O)(=O)CCNCc1ccc(-c2ccc3ncnc(Nc4ccc(OCc5cccc(F)c5)c(Cl)c4)c3c2)o1 [Lapatinib] (partner 2 µM)
Procedure, shortened: as §1

XMD8-85 + Crizotinib = compound: CN1CCN(CC1)C2=CC(=C(C=C2)NC3=NC=C4C(=N3)N(C5=CC=CC=C5C(=O)N4C)C)OC [XMD8-85] + C[C@@H](Oc1cc(-c2cnn(C3CCNCC3)c2)cnc1N)c1c(Cl)ccc(F)c1Cl [Crizotinib] (partner 1 µM)
Procedure, shortened: as §1

XMD8-85 = compound: CN1CCN(CC1)C2=CC(=C(C=C2)NC3=NC=C4C(=N3)N(C5=CC=CC=C5C(=O)N4C)C)OC [XMD8-85]
Procedure, shortened: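 Vehicle-anchored 1536-well plates of lung cancer cell lines, held overnight at 37 °C, were pinned with five library-drug doses (not always all listed) spaced by √10. No medium change followed over the next 5 days, after which the cells were fixed, permeabilised and Hoechst-stained together and imaged at 4×. Nuclei were counted with MetaXpress, and viability is treated-well nuclei over vehicle-well nuclei, taken as a median across plates. Plates passed with control CV below 25% and at least one doubling.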

XMD8-85 + Phenformin = compound: CN1CCN(CC1)C2=CC(=C(C=C2)NC3=NC=C4C(=N3)N(C5=CC=CC=C5C(=O)N4C)C)OC [XMD8-85] + N=C(N)NC(=N)NCCc1ccccc1 [Phenformin] (partner 250 µM)
Procedure, shortened: as §1

XMD8-85 + Palbociclib = compound: CN1CCN(CC1)C2=CC(=C(C=C2)NC3=NC=C4C(=N3)N(C5=CC=CC=C5C(=O)N4C)C)OC [XMD8-85] + CC(=O)c1c(C)c2cnc(Nc3ccc(N4CCNCC4)cn3)nc2n(C2CCCC2)c1=O [Palbociclib] (partner 0.5 µM)
Procedure, shortened: as §1

XMD8-85 + Luminespib = compound: CN1CCN(CC1)C2=CC(=C(C=C2)NC3=NC=C4C(=N3)N(C5=CC=CC=C5C(=O)N4C)C)OC [XMD8-85] + CCNC(=O)c1noc(-c2cc(C(C)C)c(O)cc2O)c1-c1ccc(CN2CCOCC2)cc1 [Luminespib] (partner 0.01 µM); conditions: first compound 0.253 µM
Procedure, shortened: as §1

XMD8-85 + Linsitinib = compound: CN1CCN(CC1)C2=CC(=C(C=C2)NC3=NC=C4C(=N3)N(C5=CC=CC=C5C(=O)N4C)C)OC [XMD8-85] + C[C@]1(O)C[C@@H](c2nc(-c3ccc4ccc(-c5ccccc5)nc4c3)c3c(N)nccn32)C1 [Linsitinib] (partner 1 µM)
Procedure, shortened: as §1

XMD8-85 + AZD7762 = compound: CN1CCN(CC1)C2=CC(=C(C=C2)NC3=NC=C4C(=N3)N(C5=CC=CC=C5C(=O)N4C)C)OC [XMD8-85] + NC(=O)Nc1cc(-c2cccc(F)c2)sc1C(=O)N[C@H]1CCCNC1 [AZD7762] (partner 0.2 µM); conditions: first compound 2.53 µM
Procedure, shortened: as §1

XMD8-85 + Alpelisib = compound: CN1CCN(CC1)C2=CC(=C(C=C2)NC3=NC=C4C(=N3)N(C5=CC=CC=C5C(=O)N4C)C)OC [XMD8-85] + Cc1nc(NC(=O)N2CCC[C@H]2C(N)=O)sc1-c1ccnc(C(C)(C)C(F)(F)F)c1 [Alpelisib] (partner 2 µM); conditions: first compound 8 µM
Procedure, shortened: as §1

XMD8-85 + OSI-027 = compound: CN1CCN(CC1)C2=CC(=C(C=C2)NC3=NC=C4C(=N3)N(C5=CC=CC=C5C(=O)N4C)C)OC [XMD8-85] + COc1cccc2cc(-c3nc([C@H]4CC[C@H](C(=O)O)CC4)n4ncnc(N)c34)[nH]c12 [OSI-027] (partner 0.5 µM); conditions: first compound 8 µM
Procedure, shortened: as §1

XMD8-85 + Foretinib = compound: CN1CCN(CC1)C2=CC(=C(C=C2)NC3=NC=C4C(=N3)N(C5=CC=CC=C5C(=O)N4C)C)OC [XMD8-85] + COc1cc2c(Oc3ccc(NC(=O)C4(C(=O)Nc5ccc(F)cc5)CC4)cc3F)ccnc2cc1OCCCN1CCOCC1 [Foretinib] (partner 0.25 µM)
Procedure, shortened: as §1

XMD8-85 + Vorinostat = compound: CN1CCN(CC1)C2=CC(=C(C=C2)NC3=NC=C4C(=N3)N(C5=CC=CC=C5C(=O)N4C)C)OC [XMD8-85] + O=C(CCCCCCC(=O)Nc1ccccc1)NO [Vorinostat] (partner 1 µM)
Procedure, shortened: as §1

XMD8-85 + Decitabine = compound: CN1CCN(CC1)C2=CC(=C(C=C2)NC3=NC=C4C(=N3)N(C5=CC=CC=C5C(=O)N4C)C)OC [XMD8-85] + Nc1ncn([C@H]2C[C@H](O)[C@@H](CO)O2)c(=O)n1 [Decitabine] (partner 2 µM)
Procedure, shortened: as §1

XMD8-85 + Trametinib = compound: CN1CCN(CC1)C2=CC(=C(C=C2)NC3=NC=C4C(=N3)N(C5=CC=CC=C5C(=O)N4C)C)OC [XMD8-85] + CC(=O)Nc1cccc(-n2c(=O)n(C3CC3)c(=O)c3c(Nc4ccc(I)cc4F)n(C)c(=O)c(C)c32)c1 [Trametinib] (partner 0.02 µM)
Procedure, shortened: as §1

XMD8-85 + Olaparib = compound: CN1CCN(CC1)C2=CC(=C(C=C2)NC3=NC=C4C(=N3)N(C5=CC=CC=C5C(=O)N4C)C)OC [XMD8-85] + O=C(c1cc(Cc2n[nH]c(=O)c3ccccc23)ccc1F)N1CCN(C(=O)C2CC2)CC1 [Olaparib] (partner 8 µM)
Procedure, shortened: as §1

201T
relative viability (XMD8-85 + Dasatinib; first compound 0.08 µM): 0.621 | relative viability (XMD8-85 + Tozasertib; first compound 0.8 µM): 0.953

BEN
relative viability (XMD8-85 + Pictilisib): 0.522 | relative viability (XMD8-85 + Lapatinib; first compound 0.253 µM): 0.719 | relative viability (XMD8-85 + Crizotinib; first compound 0.8 µM): 0.817 | relative viability (XMD8-85 + Tozasertib; first compound 0.253 µM): 0.458

HCC-44
relative viability (XMD8-85; 0.8 µM): 0.991

HCC-827
relative viability (XMD8-85 + Crizotinib; first compound 0.08 µM): 1.02 | relative viability (XMD8-85 + Tozasertib; first compound 0.08 µM): 0.425 | relative viability (XMD8-85 + Phenformin; first compound 0.253 µM): 0.396 | relative viability (XMD8-85 + Phenformin; first compound 0.8 µM): 0.423

HOP-62
relative viability (XMD8-85 + Palbociclib; first compound 0.8 µM): 0.419 | relative viability (XMD8-85 + Luminespib): 0.927 | relative viability (XMD8-85 + Linsitinib; first compound 8 µM): 0.664 | relative viability (XMD8-85 + AZD7762): 0.663 | relative viability (XMD8-85 + Alpelisib): 0.613 | relative viability (XMD8-85 + Dasatinib; first compound 2.53 µM): 0.685 | relative viability (XMD8-85; 8 µM): 0.687

LOU-NH91
relative viability (XMD8-85 + Lapatinib; first compound 0.08 µM): 0.743 | relative viability (XMD8-85 + OSI-027): 0.616 | relative viability (XMD8-85 + Foretinib; first compound 0.08 µM): 0.916 | relative viability (XMD8-85 + Phenformin; first compound 0.8 µM): 0.718

LU99A
relative viability (XMD8-85 + Foretinib; first compound 0.253 µM): 0.777 | relative viability (XMD8-85 + Vorinostat; first compound 2.53 µM): 0.483

NCI-H520
relative viability (XMD8-85 + Decitabine; first compound 0.08 µM): 0.482 | relative viability (XMD8-85 + Vorinostat; first compound 0.8 µM): 0.703 | relative viability (XMD8-85 + Trametinib; first compound 0.08 µM): 0.712

NCI-H1793
relative viability (XMD8-85 + Foretinib; first compound 0.08 µM): 0.726

NCI-H1944
relative viability (XMD8-85 + Foretinib; first compound 0.08 µM): 0.916 | relative viability (XMD8-85 + Vorinostat; first compound 0.253 µM): 0.626

SK-MES-1
relative viability (XMD8-85 + Palbociclib; first compound 2.53 µM): 0.328 | relative viability (XMD8-85 + Olaparib; first compound 0.8 µM): 0.693 | relative viability (XMD8-85 + Alpelisib): 0.777 | relative viability (XMD8-85 + Dasatinib; first compound 2.53 µM): 0.326 | relative viability (XMD8-85 + Tozasertib; first compound 0.8 µM): 0.938

SW 900
relative viability (XMD8-85 + Trametinib; first compound 2.53 µM): 0.654

SW 1573
relative viability (XMD8-85 + Palbociclib; first compound 0.08 µM): 0.328 | relative viability (XMD8-85 + Linsitinib; first compound 0.8 µM): 0.642 | relative viability (XMD8-85 + Decitabine; first compound 0.8 µM): 0.632 | relative viability (XMD8-85 + Olaparib; first compound 2.53 µM): 0.419 | relative viability (XMD8-85; 8 µM): 0.661
